Target: Natalizumab, a recombinant IgG4 with a native human IgG4 hinge
Test: Förster resonance energy transfer (FRET) Fab arm exchange assay
Conditions: 1 mM glutathione reducing conditions (Reduced bars); parent: est. 27; read off a plot

“hinge deleted humanized IgG4 mAb (kappa light chain) R409K” showed a response of 6.7 RFU.
